One test deals with ovine COX-1 (Ovis aries, UniProt P05979). Put plainly: IC50 determinations using purified enzymes (TLC assay), COX-1. The test is classed as biochemical.
For a further test, the target named is COX-2 (Homo sapiens, UniProt P35354). In words: IC50 determinations using purified enzymes (TLC assay), COX-2. Conditions: purified enzyme. The test is classed as biochemical.
[1] abbreviates: read-out: IC50 COX-1, Table 1, assayed against purified enzymes.

Sequences of proteins named here, by UniProt entry; tags and fusion partners are left off. Residues count along the entry.
UniProt P05979, 25-600 limits assumed: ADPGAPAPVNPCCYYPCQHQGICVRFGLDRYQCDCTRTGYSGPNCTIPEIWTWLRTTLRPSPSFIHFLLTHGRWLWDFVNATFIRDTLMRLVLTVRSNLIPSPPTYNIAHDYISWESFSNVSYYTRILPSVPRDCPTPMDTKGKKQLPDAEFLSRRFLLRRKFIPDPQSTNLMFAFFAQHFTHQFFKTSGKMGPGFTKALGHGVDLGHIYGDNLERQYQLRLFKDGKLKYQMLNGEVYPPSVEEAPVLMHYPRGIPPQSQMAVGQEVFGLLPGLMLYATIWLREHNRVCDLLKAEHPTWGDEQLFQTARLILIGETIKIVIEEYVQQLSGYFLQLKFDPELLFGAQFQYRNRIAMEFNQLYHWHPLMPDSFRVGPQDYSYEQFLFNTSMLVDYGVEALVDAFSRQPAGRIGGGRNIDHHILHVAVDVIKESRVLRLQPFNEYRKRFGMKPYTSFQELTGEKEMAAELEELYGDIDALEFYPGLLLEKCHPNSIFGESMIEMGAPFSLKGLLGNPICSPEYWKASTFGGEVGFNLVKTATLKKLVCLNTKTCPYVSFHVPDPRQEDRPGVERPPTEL
UniProt P35354, 18-604 limits assumed: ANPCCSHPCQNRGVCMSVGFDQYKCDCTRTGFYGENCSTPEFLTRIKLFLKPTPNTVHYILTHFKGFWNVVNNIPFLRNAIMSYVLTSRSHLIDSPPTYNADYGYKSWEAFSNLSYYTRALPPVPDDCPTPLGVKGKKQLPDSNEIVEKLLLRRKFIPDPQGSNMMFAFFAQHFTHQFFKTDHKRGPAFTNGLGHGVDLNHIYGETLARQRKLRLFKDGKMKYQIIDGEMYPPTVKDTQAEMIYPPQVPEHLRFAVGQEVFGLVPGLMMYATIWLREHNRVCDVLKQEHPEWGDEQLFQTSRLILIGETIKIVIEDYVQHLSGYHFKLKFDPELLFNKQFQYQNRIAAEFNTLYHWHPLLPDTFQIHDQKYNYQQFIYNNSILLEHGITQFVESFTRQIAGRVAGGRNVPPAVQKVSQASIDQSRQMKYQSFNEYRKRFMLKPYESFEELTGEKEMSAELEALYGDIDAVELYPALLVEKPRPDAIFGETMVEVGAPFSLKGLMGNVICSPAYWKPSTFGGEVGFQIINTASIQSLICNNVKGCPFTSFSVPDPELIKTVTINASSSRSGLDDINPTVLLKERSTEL

Like-named read-outs stand apart in the source and are kept apart here. A value given as a limit tells only on which side of the number the result lay.

Usually IC50 stands for the concentration at which inhibition is half-maximal. Consider `COc1ccc2c(c1)c(CC(=O)NCCCCNC(=O)CCC(=O)Nc1ccc(S(=O)(=O)Nc3nccs3)cc1)c(C)n2C(=O)c1ccc(Cl)cc1`, for which the IC50 at ovine COX-1 (setting [1]) was over 4 µM.
As to `COc1ccc2c(c1)c(CC(=O)NCCNC(=O)\C=C(C)/C=C/C=C(C)/C=C/C1=C(C)CCCC1(C)C)c(C)n2C(=O)c1ccc(Cl)cc1`, at COX-2, the “COX-2 inhibitory activity (in words)” value is recorded as “inhibited COX-2 in a highly selective fashion”. Also, the IC50 on ovine COX-1 (setting [1]) is over 4 µM.
Consider `COc1ccc2c(c1)c(CC(=O)NCCOCCOCCOCCOCCC(=O)O)c(C)n2C(=O)c1ccc(Cl)cc1`, for which, on COX-2, the “COX-2 inhibitory activity (in words)” value is given as “non-selective COX inhibitor”. The IC50 at ovine COX-1 (read-out: IC50 for COX-1, purified enzyme) is 4 µM.

Source of the values: patent publication US7736624B2, “Methods and compositions for diagnostic and therapeutic targeting of COX-2” (priority 2006, dated 2010).
